These results are taken from US20230129438A1, “IMMUNOMODULATING IMINE-OXAZOLINE AZALIDES” (Zoetis Services LLC, priority 2020, published 2023).

The subject of this experiment is BRD pathogens, M. haemolytica and P. multocida. Kind of experiment: In-vitro MIC model, BRD pathogen screening panel. The class given is cell-based. Conditions: non-antibacterial = MIC>64 μg/mL for M. haemolytica and P. multocida.
With `CCCNC[C@]1(O)[C@H](C)O[C@@H](O[C@H]2[C@H](C)[C@@H](O[C@@H]3O[C@H](C)C[C@H]4[C@H]3OC(=NCC(F)(F)F)N4C)[C@](C)(O)C[C@@H](C)CN[C@H](C)[C@@H](O)[C@](C)(O)[C@@H](CC)OC(=O)[C@@H]2C)C[C@@]1(C)OC` (mixture of isomers) [Example A-4, (E/Z)-(2R,3S,4R,5R,8R,10R,11R,12S,13S,14R)-11-(((3aR,4S,6R,7aS)-1,6-dimethyl-2-((2,2,2-trifluoroethyl)imino)hexahydro-2H-pyrano[4,3-d]oxazol-4-yl)oxy)-2-ethyl-3,4,10-trihydroxy-13-(((2R,4R,5S,6S)-5-hydroxy-4-methoxy-4,6-dimethyl-5-((propylamino)methyl)tetrahydro-2H-pyran-2-yl)oxy)-3,5,8,10,12,14-hexamethyl-1-oxa-6-azacyclopentadecan-15-one], the “antibacterial activity against BRD pathogens, in words” value (from here on “antibacterial activity”) is “lack of in vitro activity”.

With `CCCNC[C@]1(O)[C@H](C)O[C@@H](O[C@H]2[C@H](C)[C@@H](O[C@@H]3O[C@H](C)C[C@H]4[C@H]3OC(=Nc3ccc(OC)cc3)N4C)[C@](C)(O)C[C@@H](C)CN[C@H](C)[C@@H](O)[C@](C)(O)[C@@H](CC)OC(=O)[C@@H]2C)C[C@@]1(C)OC` (mixture of isomers) [Example A-9, (E/Z)-(2R,3S,4R,5R,8R,10R,11R,12S,13S,14R)-2-ethyl-3,4,10-trihydroxy-13-(((2R,4R,5S,6S)-5-hydroxy-4-methoxy-4,6-dimethyl-5-((propylamino)methyl)tetrahydro-2H-pyran-2-yl)oxy)-11-(((3aR,4S,6R,7aS)-2-((4-methoxyphenyl)imino)-1,6-dimethylhexahydro-2H-pyrano[4,3-d]oxazol-4-yl)oxy)-3,5,8,10,12,14-hexamethyl-1-oxa-6-azacyclopentadecan-15-one], the “antibacterial activity” value is recorded as “lack of in vitro activity”.

As for `CC[C@H]1OC(=O)[C@H](C)[C@@H](O[C@H]2C[C@@](C)(OC)[C@](O)(CNCCOC)[C@H](C)O2)[C@H](C)[C@@H](O[C@@H]2O[C@H](C)C[C@H]3[C@H]2OC(=Nc2ccc(OC)cc2)N3C)[C@](C)(O)C[C@@H](C)CN[C@H](C)[C@@H](O)[C@]1(C)O` (mixture of isomers) [Example A-13, (E/Z)-(2R,3S,4R,5R,8R,10R,11R,12S,13S,14R)-2-ethyl-3,4,10-trihydroxy-13-(((2R,4R,5S,6S)-5-hydroxy-4-methoxy-5-(((2-methoxyethyl)amino)methyl)-4,6-dimethyltetrahydro-2H-pyran-2-yl)oxy)-11-(((3aR,4S,6R,7aS)-2-((4-methoxyphenyl)imino)-1,6-dimethylhexahydro-2H-pyrano[4,3-d]oxazol-4-yl)oxy)-3,5,8,10,12,14-hexamethyl-1-oxa-6-azacyclopentadecan-15-one], the “antibacterial activity” value was “lack of in vitro activity”. With `CCCNC[C@]1(O)[C@H](C)O[C@@H](O[C@H]2[C@H](C)[C@@H](O[C@@H]3O[C@H](C)C[C@H]4[C@H]3OC(=Nc3ccc(OC)nc3)N4C)[C@](C)(O)C[C@@H](C)CN[C@H](C)[C@@H](O)[C@](C)(O)[C@@H](CC)OC(=O)[C@@H]2C)C[C@@]1(C)OC` (mixture of isomers) [Example A-17, (E/Z)-(2R,3S,4R,5R,8R,10R,11R,12S,13S,14R)-2-ethyl-3,4,10-trihydroxy-13-(((2R,4R,5S,6S)-5-hydroxy-4-methoxy-4,6-dimethyl-5-((propylamino)methyl)tetrahydro-2H-pyran-2-yl)oxy)-11-(((3aR,4S,6R,7aS)-2-((6-methoxypyridin-3-yl)imino)-1,6-dimethylhexahydro-2H-pyrano[4,3-d]oxazol-4-yl)oxy)-3,5,8,10,12,14-hexamethyl-1-oxa-6-azacyclopentadecan-15-one] the entry was “lack of in vitro activity”; with `CC[C@H]1OC(=O)[C@H](C)[C@@H](O[C@H]2C[C@@](C)(OC)[C@](O)(CN3CCOCC3)[C@H](C)O2)[C@H](C)[C@@H](O[C@@H]2O[C@H](C)C[C@H]3[C@H]2OC(=Nc2ccccc2)N3C)[C@](C)(O)C[C@@H](C)CN[C@H](C)[C@@H](O)[C@]1(C)O` (mixture of isomers) [Example B-3, (E/Z)-(2R,3S,4R,5R,8R,10R,11R,12S,13S,14R)-11-(((3aR,4S,6R,7aS)-1,6-dimethyl-2-(phenylimino)hexahydro-2H-pyrano[4,3-d]oxazol-4-yl)oxy)-2-ethyl-3,4,10-trihydroxy-13-(((2R,4R,5S,6S)-5-hydroxy-4-methoxy-4,6-dimethyl-5-(morpholinomethyl)tetrahydro-2H-pyran-2-yl)oxy)-3,5,8,10,12,14-hexamethyl-1-oxa-6-azacyclopentadecan-15-one], “lack of in vitro activity”.
